The results in this text go back to PubChem BioAssay AID587 (National Center for Advancing Translational Sciences (NCATS), 2007).

The structures appear in SMILES notation. The list shows a part of the results, in another mix than the full data. Some results for these compounds are left out of this collection, so the calls shown say nothing about other tests. Records with an inconclusive call do not appear. The source made the active and inactive calls. No stated cut-off is given here; in the data, active means max dye-equivalent concentration above about 10 nM; inconclusive means between about 1.1 nM and that limit; inactive means weaker than that.

The assay is described as follows: qHTS Assay for Spectroscopic Profiling in Texas Red Spectral Region. Conditions: Compound fluorescence, Texas Red channel, 547/618 nm. From the text:
NIH Molecular Libraries Screening Centers Network [MLSCN] NIH Chemical Genomics Center [NCGC] […] Occasionally, the artifactual effect may originate from the compound#s own spectral or other biophysical properties which generally tend to track its assay concentration. Pre-screening/profiling the library with respect to the compounds# spectral properties should help one exclude false positives early on. While the most informative fluorescent profiling data set is obtained by performing a full excitation and emission scan of each well by using a monochromator-based plate reader, such an approach is practical only on a very limited scale as scanning each well requires long time. An alternative approach, applied here, is to perform plate reader scans using selected excitation and emission wavelength pairs to generate a multidimensional relational database that correlates compound concentration and the respective relative fluorescence intensity at a given wavelength set. A standard curve of Texas Red (TR) present on each plate as six-point concentration series, was used to compute a normalized fluorescence response, termed dye-equivalent concentration, for each compound at each concentration.
NCGC Assay Protocol Summary: Buffer: 100 mM Tris buffer, pH 8.0 Dye standard plate: The wells in columns 1 through 4 of a Kalypsys polypropylene 1536-well compound plate were filled with standard solutions of fluorophore corresponding to the spectral region of interest. Solutions of TR were placed in the following wells: U1, V1: 3 mM, U2, V2: 300 uM, U3, V3: 30 uM, U4, V4: zero (DMSO), W1, X1: 3 uM, W2, X2: 900 nM, W3, X3: 300 nM, W4, X4: zero (DMSO). Assay Steps: Six uL of buffer were dispensed to 1536-well Greiner black plates. Compounds and dye standards (23 nL) were transferred via Kalypsys PinTool. The plates were incubated for 15 min at room temperature, and then read on ViewLux (Perkin-Elmer) High-throughput CCD imager using 547 nm and 618 nm excitation and emission filter set. Keywords: NIH Roadmap, MLSCN, MLI, MLSMR, qHTS, NCGC, Texas Red, Fluorescent Profiling.
As to `CN(C)c1cccc(C(=O)NCC2(N(C)C)CCCCC2)c1`, the call was inactive. For `C=C(C)C#C[C@@](O)(C(=O)OC1CCN(C)CC1)c1ccccc1`, the call was inactive. For `CN1CC[C@H](OC(=O)[C@](O)(c2ccccc2)C2CCCC2)C1` the value was “inactive”. With `O=C(OC1CN2CCC1CC2)C(CO)(c1ccccc1)c1ccccc1` (stereo not given), the outcome was inactive. `CN1CCC[C@H](OC(=O)[C@](O)(c2ccccc2)C2CCCC2)C1`: the result was inactive.
